The numbers were not newly measured in patent US10711261B2 (priority 2015, dated 2020), which cites them from elsewhere.

The subject of the data set is ALS. As to conditions: in vivo; cited from earlier work.

Regarding `Nc1nc2ccc(OC(F)(F)F)cc2s1` [riluzole], the “prolongation of median survival” value was 2-3 months.
